PDI inh = inhibitors of human protein disulfide isomerase. PDI insulin aggregation turbidity, A650, 90 min. inhibition, % at 10 µM. 350,000 tested, 0.052% active. AID 588391;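 active = mean inhibition across replicates of 30% or more, whatever share of single replicates reach that level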
FGF22 binding-1 = FGF22 (human) thermal shift binding. recombinant FGF22 thermal shift, SYPRO orange fluorescence; percent of sucrose octasulfate shift, DMSO zero. activity (Tm shift, normalised), % at 9.99 µM. 340,000 tested, 1.5% active;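 active = mean Tm shift, scaled 0 neutral to 100 positive control, at about 1.3% or above, every replicate too, limit read from the data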
ERp5 block = ERp5 (human) disulfide isomerase inhibition. Q15084. ERp5 insulin aggregation, absorbance 650 nm, 90 min. inhibition, % at 9.99 µM. 350,000 tested, 0.05% active. AID 651711;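 active = mean replicate inhibition above about 25%, with every replicate also reaching it, limit read from the data, passing the limit was not always enough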
PglD DTNB = PglD (C. jejuni) enzyme inhibition; purified PglD enzyme, DTNB colorimetric CoA detection; inhibition, % at 12.5 µM; 360,000 tested, 0.098% active; AID 602405; in the data active = inhibition above about 16%, passing the limit was not always enough
Yeast UUG start = modulators of start codon recognition fidelity in yeast; AID 602363; hit rate 0.13% among 350,000; activity score, % at 18.7 µM; S. cerevisiae UUG-firefly luciferase reporter, luminescence/redox ratio;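 active = replicate mean at a twofold rise or more, about +100% in these data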;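 note: firefly luciferase made from a UUG start codon reports start codon fidelity; reporter light over untreated wells divided by growth signal over untreated wells; some hits fall short of that in this replicate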
ARNT TACC3 PPI = disruptors of human ARNT/TACC3 interaction; Q9Y6A5; AlphaScreen His-ARNT PAS-B/GST-TACC3 binding, luminescence; TACC3 fragment carries E629A point mutation; inhibition, % at 9.99 µM; 390,000 tested, 0.66% active;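 active = mean inhibition of replicates at least 50% and at least half of replicates each reaching 50%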;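 note: 0% = complete ARNT plus TACC3 wells and 100% = ARNT alone without TACC3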
FGF22 binding-2 = binds human FGF22 shifting its melting temperature; recombinant FGF22 thermal shift, SYPRO orange fluorescence; 1,000 tested, 2% active; thermal shift activity, °C (ΔTm) at 38 µM; AID 720646; shares compounds with FGF22 binding-1;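 active = fitted rise in melting shift crosses a set limit at or below the top valid dose tested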
FGF22 TSA DP = binds human FGF22 shifting its melting temperature. shares compounds with FGF22 binding-1. Thermal shift assay, SYPRO orange, melting temperature shift. Tm shift (activity), % at 38 µM. 50 tested, under 10 active. AID 743017;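 active = compounds whose fitted dose curve of melting temperature shift rises past a set threshold within the tested doses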
TSA no protein = compound-only SYPRO artifact for FGF22 binders. shares compounds with FGF22 binding-1. compound-only SYPRO orange thermal shift counter-screen, no protein. AC50, µM (highest dose often 38 µM). 1,000 tested, 2% active;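 active = rising signal whose fitted curve reaches the 0.54 level within the top valid dose, showing a melting point, actives reach about 13 µM in these data; inactive = the rest, including activity in the opposite direction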; note: value is where the raw curve crosses a fixed level and not half-maximal
* marks the source's active call; other numbers are inactive results; i = inactive; · = no result; [ ] = another dose, or the depositor's remark. An excerpt weighted towards active compounds, which were near 1.9% of everything screened.

SMILES	PDI inh	FGF22 binding-1	ERp5 block	PglD DTNB	Yeast UUG start	ARNT TACC3 PPI	FGF22 binding-2	TSA no protein	others
CC(C)c1ccc(NC2CCCN(C(=O)c3cc(C(C)C)[nH]n3)C2)cc1 (centres undefined)	-1	28*	2	-2	7	4	0.2	i
O=C(C[C@H]1CC[C@H]2[C@@H](COC[C@H](O)CN2Cc2ccccc2)O1)NCCc1ccccc1	·	1.6*	2	3	·	6	0.14	i
O=C(C[C@H]1CC[C@@H]2[C@H](COC[C@H](O)CN2C(=O)c2ccc(F)cc2)O1)NCc1cccc(F)c1	·	1	0	-2	·	-21	·	·
O=C(C[C@H]1CC[C@@H]2[C@H](COC[C@H](O)CN2Cc2cc(F)ccc2F)O1)NCc1ccc(F)cc1	·	2.6*	1	2	·	20	0.16[42 µM]	i
O=C(C[C@@H]1CC[C@H]2[C@@H](COC[C@@H](O)CN2C(=O)c2ccccc2F)O1)NCc1ccccc1	·	1.8*	-1	2	·	15	0.033[42 µM]	i
O=C(C[C@@H]1CC[C@H]2[C@@H](COC[C@@H](O)CN2C(=O)c2ccc(F)cc2)O1)NCc1cccc(F)c1	·	1.5*	-3	2	·	-5	0.035	i
O=C(C[C@@H]1CC[C@@H]2[C@H](COC[C@H](O)CN2Cc2cc(F)ccc2F)O1)NCc1ccc(F)cc1	·	1	0	-2	·	2	·	·
COc1ccccc1-c1cnc2c(c1)C(=O)N([C@H](C)CO)C[C@H](C)[C@@H](CN(C)C(=O)c1ccccc1)O2	·	0	-2	8	-3	-6	·	·
C[C@H](CO)N1C[C@H](C)[C@@H](CN(C)C)Oc2ncc(-c3cccnc3)cc2C1=O	·	1.7*	21	2	-7	1	0.075[42 µM]	i
COc1ccccc1-c1cnc2c(c1)C(=O)N([C@@H](C)CO)C[C@H](C)[C@H](CN(C)C(=O)c1cccnc1)O2	·	1.9*	8	4	3	4	0.27	i
CC(=O)Nc1ccc(S(=O)(=O)Nc2ccc(Cl)nn2)cc1	-4	·	·	·	·	-5	·	·
CC(=O)Nc1ccc(S(=O)(=O)Nc2ccn(Cc3ccccc3Cl)n2)cc1	10	2.1*	3	0	-12	·	0.1	i
CC(=O)N1[C@H](CO)[C@H](c2ccccc2)[C@H]1CN(C(=O)c1cccc(F)c1)C(C)C	·	1.7*	-3	2	25	-5	0.12	i
CCCCN(C(=O)c1ccc2c(c1)OCCO2)c1c(N)n(CCCC)c(=O)[nH]c1=O	2	21*	-4	6	-14	-12	0.11	i
COc1ccccc1-c1ccc2n(c1=O)C[C@@H]1[C@@H](CO)[C@H](C(=O)NC3CCC3)N(C(=O)NC(C)C)[C@H]21	·	15*	4	3	·	-3	0.026	i
COCCNC(=O)[C@H]1[C@H](CO)[C@H]2Cn3c(ccc(-c4ccc(F)cc4)c3=O)[C@@H]1N2C(=O)NC(C)C	·	14*	-4	5	·	1	0.26[42 µM]	i
COCCNC(=O)[C@@H]1[C@@H](CO)[C@@H]2Cn3c(ccc(-c4ccc(OC)cc4)c3=O)[C@H]1N2C(=O)NC(C)C	·	0	2	-1	·	3	·	·
COc1ccccc1-c1ccc2n(c1=O)C[C@H]1[C@H](CO)[C@@H](C(=O)NC3CCC3)N(C(=O)NC(C)C)[C@@H]21	·	0	1	2	·	0	·	·
Cc1ccc(SCC(=O)OCC(=O)NCCC2=CCCCC2)cc1	-8	0	6	0	-1	0	·	·
O=C(COC(=O)CSc1ccc([N+](=O)[O-])cc1)NCCC1=CCCCC1	-5	5.5*	9	-3	-5	1	0.16	i
O=[N+]([O-])c1ccc(N/N=C/c2ccc[nH]2)cc1	-6	3.1*	3	-10	-25	·	0.23	i
O=C(C(=O)N1CCN(C/C=C/c2ccccc2)CC1)c1ccccc1	·	15*	-3	·	·	·	0.073	i
O=Cc1cc(N=Nc2cccc(C(=O)O)c2)ccc1O	-1	2.0*	-5	·	·	-5	0.065	i
CCC(=O)N1C[C@H](C)[C@H](OC)CN(C)C(=O)c2cc(NC(=O)C3CCOCC3)ccc2OC[C@@H]1C	·	0	11	1	-14	-10	·	·
O=C1C2C(C(=O)N1CCc1ccccc1)C1C=CC2C12CC2 (centres undefined)	1	2.5*	-5	-3	-17	-3	0.13	i
C[C@@H]1CN([C@@H](C)CO)C(=O)c2cccc(NC(=O)Nc3ccccc3)c2O[C@@H]1CN(C)Cc1ccncc1	·	0	-3	13	14	1	·	·
O=C(N[C@@H]1CC[C@@H](CC(=O)N2CCCCC2)O[C@H]1CO)c1cccc(F)c1	·	0	4	0	-9	-3	·	·
CN(Cc1ccccc1)C(=O)c1[nH]cnc1C(=O)NC1CCN(C(=O)OC(C)(C)C)CC1	-1	2.5*	-4	5	2	1	0.14	i
CC(C)(C)OC(=O)N1CCC(NC(=O)c2[nH]cnc2C(=O)Nc2ccccc2)CC1	14	0	0	1	-9	-13	·	·
CN1CCN(C(=O)C[C@H]2C=C[C@@H](NS(=O)(=O)c3cccc(F)c3)[C@@H](CO)O2)CC1	·	0	0	17	·	-6	·	·
C[C@@H]1CN([C@@H](C)CO)C(=O)CCCn2cc(nn2)CO[C@H]1CN(C)Cc1ccc(O)cc1	·	0	0	1	-7	-5	·	·
C[C@@H]1CCCCO[C@H](CN(C)C(=O)Nc2ccc3c(c2)OCO3)[C@H](C)CN([C@@H](C)CO)C(=O)c2cc(NC(=O)C3CCCCC3)ccc2O1	·	0	-4	-1	9	33	·	·
C[C@@H]1CN([C@@H](C)CO)C(=O)c2cccc(NS(=O)(=O)c3ccc(F)cc3)c2O[C@H]1CN(C)C(=O)Nc1cccc2ccccc12	·	0	·	·	·	·	·	·
O=C(OCC(=O)c1cccs1)c1cccc(C(=O)OCC(=O)c2cccs2)n1	1	2.2*	-6	-4	-16	3	0.026	i
CN(C)c1ccc(C(=O)OCC(=O)c2cccs2)cc1	9	0	0	·	·	-2	·	·
C[C@@H]1CN([C@@H](C)CO)C(=O)c2cc(NC(=O)C3CC3)ccc2O[C@H]1CN(C)C(=O)Nc1ccccc1	·	0	-9	-2	-6	-7	·	·
Cc1cc(C(=O)N/N=C/c2c[nH]c3ccccc23)cs1	0	2.7*	-2	·	·	9	·	i	FGF22 TSA DP=0

Quoted at random: four compounds from above.
SMILES	PDI inh	FGF22 binding-1	ERp5 block	PglD DTNB	Yeast UUG start	ARNT TACC3 PPI	FGF22 binding-2	TSA no protein	others
C[C@@H]1CN([C@@H](C)CO)C(=O)c2cc(NC(=O)C3CC3)ccc2O[C@H]1CN(C)C(=O)Nc1ccccc1	·	0	-9	-2	-6	-7	·	·
CN(Cc1ccccc1)C(=O)c1[nH]cnc1C(=O)NC1CCN(C(=O)OC(C)(C)C)CC1	-1	2.5*	-4	5	2	1	0.14	i
C[C@@H]1CN([C@@H](C)CO)C(=O)c2cccc(NC(=O)Nc3ccccc3)c2O[C@@H]1CN(C)Cc1ccncc1	·	0	-3	13	14	1	·	·
C[C@@H]1CN([C@@H](C)CO)C(=O)c2cccc(NS(=O)(=O)c3ccc(F)cc3)c2O[C@H]1CN(C)C(=O)Nc1cccc2ccccc12	·	0	·	·	·	·	·	·
